{"source": "ChEMBL document CHEMBL2177083", "about": "“Enhanced in vitro biological activity of synthetic 2-(2-pyridyl) ethyl isothiocyanate compared to natural 4-(methylsulfinyl) butyl isothiocyanate” (J Med Chem, 2012)", "assay_type_in_all_cases": "functional, cell-based", "key": {"[1]": {"experiment": "Increase in TGF-beta signaling pathway related gene expression in human PNT1A cells at 10 uM incubated for 8 hrs by Affymetrix human exon array relative to untreated control"}, "PC-3": {"test_system": "PC-3", "experiment": "Cytotoxicity against human PC3 cells incubated for 24 hrs by WST1 dye reduction assay"}, "DU-145": {"test_system": "DU-145", "experiment": "Cytotoxicity against human DU145 cells incubated for 24 hrs by WST1 dye reduction assay"}, "HepG2": {"test_system": "HepG2", "experiment": "Cytotoxicity against human HepG2 cells incubated for 24 hrs by WST1 dye reduction assay"}, "Caco-2": {"test_system": "Caco-2", "experiment": "Cytotoxicity against human Caco2 cells incubated for 24 hrs by WST1 dye reduction assay"}, "[2]": {"experiment": "Increase in MAPK signaling pathway related gene expression in human PNT1A cells at 10 uM incubated for 8 hrs by Affymetrix human exon array relative to untreated control"}}, "data": [{"smiles": "S=C=NCCc1ccccn1", "values": [{"measurement": "fold change (FC)", "setting": "[1]", "result": 2.2}, {"measurement": "Activity", "setting": "PC-3", "result": "Dose-dependent effect"}, {"measurement": "Activity", "setting": "DU-145", "result": "Dose-dependent effect"}, {"measurement": "Activity", "setting": "HepG2", "result": "Dose-dependent effect"}, {"measurement": "Activity", "setting": "Caco-2", "result": "Dose-dependent effect"}, {"measurement": "fold change (FC)", "setting": "[2]", "result": 1.7}]}]}
